Values quoted from earlier work, collected in patent publication US7737253B2, “Human cancer stem cell culture compositions comprising Erbb2 variants and methods of use thereof” (BresaGen, Inc., priority 2006, dated 2010).

Test system: breast cancer that over-expresses Erbb2
Details: cited from earlier work

Question: For Trastuzumab, which “severe side effect of treatment” value (a significant number of women) is on record?
Answer: treatment-induced cardiotoxicity

Question: What about the “proportion of breast cancers in which progression is slowed” value (breast cancer patients) of the same substance?
Answer: approximately 30%

Question: And the “clinical benefit of first-line chemotherapy” value (large-scale clinical trial, metastatic breast cancer that over-expresses Erbb2)?
Answer: increased the clinical benefit
